In the assay the target is D(2) dopamine receptor (Homo sapiens, UniProt P14416).

Amino acid sequences for entries named in this document (tags omitted).
UniProt P14416, whole entry: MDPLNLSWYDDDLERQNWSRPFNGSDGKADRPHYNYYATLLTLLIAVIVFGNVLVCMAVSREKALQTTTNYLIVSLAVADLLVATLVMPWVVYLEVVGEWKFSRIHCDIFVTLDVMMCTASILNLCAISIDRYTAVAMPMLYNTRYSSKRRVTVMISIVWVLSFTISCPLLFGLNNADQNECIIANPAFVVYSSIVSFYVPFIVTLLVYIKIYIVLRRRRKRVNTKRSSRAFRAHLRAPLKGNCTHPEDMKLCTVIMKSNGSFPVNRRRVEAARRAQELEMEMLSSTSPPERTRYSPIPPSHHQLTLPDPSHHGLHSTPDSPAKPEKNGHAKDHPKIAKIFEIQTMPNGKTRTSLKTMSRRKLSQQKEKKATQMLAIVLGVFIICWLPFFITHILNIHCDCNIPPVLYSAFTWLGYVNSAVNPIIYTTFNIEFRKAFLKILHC

What is called Ki is a measure of affinity in units of concentration, obtained from inhibition or displacement. Low readings indicate a stronger hold on the target, high ones a looser hold on the target. `CCCN1CCc2cccc3c2[C@H]1Cc1cccc(O)c1-3` gave an inhibitory constant (Ki) of 28.5 nM.

These data come from ChEMBL document CHEMBL5523761 (J Med Chem, 2024).
